Earlier results in patent publication EP1156371A2, “Replenishing method of planographic printing plate developer” (FUJI PHOTO FILM CO., LTD., priority 2000, dated 2001).

Settings: dissociation constant of weak acid, aqueous solution
In the case of 1-amino-3,3,3-trifluorobenzoic acid, the pKa is given as 12.29.
In the case of 3,4-dihydroxysulfonic acid, the pKa is listed as 12.2.
For `ON=C1CCCCCC1=NO` [1,2-cycloheptanedione dioxime], the pKa is given as 12.3.
For `Nc1cc[nH]c(=O)n1` [cytosine], the pKa is given as 12.3.
For `CN(C)CP(=O)(O)O` [dimethylaminomethyl phosphonic acid], the pKa is given as 12.32.
